In publication PMC4412257, “2′,6′-Dimethylphenylalanine: A Useful Aromatic Amino Acid Surrogate for Tyr or Phe Residue in Opioid Peptides” (International Journal of Medicinal Chemistry, 2012) one finds GPI/MVD and Ki data, which are given here for one substance.

In general, Ki refers to the equilibrium dissociation constant of an inhibitor or competing ligand from its target.

The subject of assay [1] is MVD (δ): mouse vas deferens, δ-receptors. As to the kind of experiment: isolated mouse vas deferens (MVD) assay. It counts as cell-based. Conditions: Table 1; ratio of IC50 values. As for the experimental part:
The usefulness of Dmp was first investigated as a surrogate for Phe^4 in ENK analogs. The receptor-binding affinities of synthetic analogs were determined using rat brain, as previously reported. […] The D-Dmp replacement of ENK (11) induced significant reduction in binding affinity for both receptors. […] In vitro biological activity of ENK analogs was evaluated using isolated guinea pig ileum (GPI) and mouse vas deferens (MVD) tissue samples, as previously reported. The GPI tissue contains predominantly μ-receptors, while MVD tissue contains δ-receptors. […] In contrast, 11 was devoid of activity in both assays, as expected from the binding data. […] This analog turned out to be a potent μ-antagonist and a weak δ-antagonist. […] The results of 13 are in line with observations that Dmt-D-Phe-NH2 and its C-terminally extended analog are μ-receptor antagonists.

Assay [2] concerns the target μ-opioid receptor. Particulars: versus [3H]DAMGO, read-out: Receptor binding affinity, Ki ± S.E., μ, cited from earlier work.
Assay [3] deals with δ-opioid receptor. Particulars: versus [3H]DT, read-out: Receptor binding affinity, Ki ± S.E., δ, cited from earlier work.

Read-outs that look alike come from different tables or passages of the source.

With “Tyr-Gly-Gly-Phe-Leu [ENK, reference compound]”, the GPI/MVD in assay [1] is given as 4.64. For the same substance, the Ki in assay [2] (Table 1, rat brain) was 2.42 ± 0.93 nM; in assay [2] (Table 6) it was 2.42 ± 0.93 nM; in assay [3] (Table 1, rat brain), 1.43 ± 0.71 nM; in assay [3] (Table 6), 1.43 ± 0.71 nM.
